Reference: US7247440B2, “Method of screening preventives or remedies for obesity” (Takeda Pharmaceutical Company Limited, priority 2001, dated 2007)

Sequences of proteins named here, by UniProt entry; tags and fusion partners are left off. A change or cut given only in a name is not applied to a line headed by its entry.
UniProt P48146: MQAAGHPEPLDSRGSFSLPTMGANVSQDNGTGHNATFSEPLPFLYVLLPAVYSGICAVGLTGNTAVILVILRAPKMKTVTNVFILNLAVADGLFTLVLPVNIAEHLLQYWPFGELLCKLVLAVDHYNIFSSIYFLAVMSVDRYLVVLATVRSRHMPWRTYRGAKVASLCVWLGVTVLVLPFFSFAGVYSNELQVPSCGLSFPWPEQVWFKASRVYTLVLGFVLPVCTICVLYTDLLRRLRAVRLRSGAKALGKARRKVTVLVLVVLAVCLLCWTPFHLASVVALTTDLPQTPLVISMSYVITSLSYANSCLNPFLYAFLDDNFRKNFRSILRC

Assays:
[1] = target: T1, GPR8 (Homo sapiens, UniProt P48146); experiment: GTPγ S binding promoting activity on GPR8-expressed CHO cell membrane fraction; type: biochemical; parameters: expressed in transfected cells; host or cells: CHO dhfr- cells, plasmid pAKKO-GPR8 (clones #17, #41, #46; mainly #17); conditions: various concentrations
Protocol: The [^35S]-guanosine 5′-(γ-thio)triphosphate binding promoting activity on a GPR8-expressed CHO cell membrane fraction was assayed by the following procedures. First, preparation of the membrane fraction is described. To 1×10^8 of CHO/GPR8 cells was added 10 ml of a homogenate buffer (10 mM NaHCO3, 5 mM EDTA, 0.5 mM PMSF, 1 μg/ml pepstatin, 4 μg/ml E64 and 20 μg/ml leupeptin). The mixture was homogenized by using Polytron (12,000 rpm, 1 min.). The cell homogenate was subjected to centrifugation (1,000 g, 15 mins.) to obtain the supernatant. Next, the supernatant was subjected to ultracentrifugation (Beckman type 30 rotor, 30,000 rpm, 1 hour). The resulting precipitate was used as GPR8-expressed CHO cell membrane fraction.
The GTPγ S binding activity was assayed as follows. The GPR8expressed CHO cell membrane fraction was diluted with a membrane dilution buffer (50 mM Tris-hydrochloride buffer (pH 7.4), 5 mM MgCl2, 150 mM NaCl, 1 μM GDP) to prepare a cell membrane fraction solution for assay having a protein level of 30 mg/ml. To 200 μl of the cell membrane fraction solution for assay were added 2 μl of 51.5 nM [^35S]-guanosine 5′-(γ-thio)triphosphate (NEN Co.) and a sample fluid. […] After washing twice with 1.5 ml of a wash buffer (50 mM Tris-hydrochloride buffer (pH 7.4), 5 mM MgCl2, 1 mM EDTA, 0.1% BSA), radioactivity of the filter was measured with a liquid scintillation counter. […]

[2] = target: T1, GPR8; experiment: Intracellular cAMP production suppressing activity in GPR8-expressed CHO cells; type: cell-based; parameters: expressed in transfected cells; host or cells: CHO dhfr- cells, plasmid pAKKO-GPR8 (clones #17, #41, #46; mainly #17); conditions: forskolin
Protocol: The CHL/GPR8 cells produced in REFERENCE EXAMPLE 4 and mock CHO cells were inoculated on a 24-well plate in 5×10^4 cells/well, followed by cultivation for 48 hours. The cells were washed with Hanks' buffer (pH 7.4) containing 0.2 mM 3-isobutyl-methylxanthine, 0.05% BSA and 20 mM HEPES (hereinafter Hanks' buffer (pH 7.4) containing 0.2 mM 3-isobutyl-methylxanthine, 0.05% BSA and 20 mM HEPES is referred to as a reaction buffer). Thereafter, 0.5 ml of the reaction buffer was added to the system, which was kept warm in an incubator for 30 minutes. After the reaction buffer was removed, 0.25 ml of a fresh reaction buffer was added to the cells. Then, 0.25 ml of the reaction buffer containing a sample fluid and 2 μM forskolin was added to the cells followed by reacting at 37° C. for 24 minutes. By adding 100 μl of 20% perchloric acid, the reaction was terminated. The reaction mixture was then allowed to stand on ice for an hour to extract intracellular cAMP. The amount of cAMP in the extract was measured using cAMP EIA kit (Amersham Pharmacia Biotech).
hGPR8L (1-23), which was synthesized in REFERENCE EXAMPLE 12, was brought in contact with the GPR8-expressed CHO cells in various concentrations according to the procedures described in REFERENCE EXAMPLE 5, to assay the intracellular cAMP production suppressing activity. […]

SMILES: CSCC[C@H](NC(=O)[C@H](CC(C)C)NC(=O)[C@H](CC(C)C)NC(=O)CNC(=O)[C@H](C)NC(=O)[C@H](C)NC(=O)[C@H](CCCNC(=N)N)NC(=O)CNC(=O)[C@@H](NC(=O)[C@@H](NC(=O)[C@H](Cc1c[nH]cn1)NC(=O)[C@H](Cc1ccc(O)cc1)NC(=O)[C@H](CCCNC(=N)N)NC(=O)[C@@H]1CCCN1C(=O)[C@H](CO)NC(=O)[C@H](C)NC(=O)[C@@H](NC(=O)[C@H](Cc1c[nH]cn1)NC(=O)[C@H](CCCCN)NC(=O)[C@H](Cc1ccc(O)cc1)NC(=O)[C@@H](N)Cc1c[nH]c2ccccc12)C(C)C)[C@@H](C)O)C(C)C)C(=O)NCC(=O)N[C@@H](CC(C)C)C(=O)N[C@@H](CCCNC(=N)N)C(=O)N[C@@H](CCCNC(=N)N)C(=O)N[C@@H](CO)C(=O)N1CCC[C@H]1C(=O)N[C@@H](Cc1ccc(O)cc1)C(=O)N[C@@H](CC(C)C)C(=O)N[C@@H](Cc1c[nH]c2ccccc12)C(=O)O [hGPR8L(1–30)]
- GTPγ S binding promoting activity (in words) [1]: dose-dependently promoted the GTPγ S binding
- intracellular cAMP production suppressing activity (in words) [2]: suppressed the intracellular cAMP production dose-dependently

SMILES: CSCC[C@H](NC(=O)[C@H](CC(C)C)NC(=O)[C@H](CC(C)C)NC(=O)CNC(=O)[C@H](C)NC(=O)[C@H](C)NC(=O)[C@H](CCCNC(=N)N)NC(=O)CNC(=O)[C@@H](NC(=O)[C@@H](NC(=O)[C@H](Cc1c[nH]cn1)NC(=O)[C@H](Cc1ccc(O)cc1)NC(=O)[C@H](CCCNC(=N)N)NC(=O)[C@@H]1CCCN1C(=O)[C@H](CO)NC(=O)[C@H](C)NC(=O)[C@@H](NC(=O)[C@H](Cc1c[nH]cn1)NC(=O)[C@H](CCCCN)NC(=O)[C@H](Cc1ccc(O)cc1)NC(=O)[C@@H](N)Cc1c[nH]c2ccccc12)C(C)C)[C@@H](C)O)C(C)C)C(=O)NCC(=O)N[C@@H](CC(C)C)C(=O)O [hGPR8L(1–23)]
- GTPγ S binding promoting activity (in words) [1]: dose-dependently
- intracellular cAMP production suppressing activity (in words) [2]: suppressed the intracellular cAMP production dose-dependently
